Assay results taken from patent US9616064B2, “Rho kinase inhibitors and methods of use” (H. LEE MOFFITT CANCER CENTER AND RESEARCH INSTITUTE, INC., priority 2011, dated 2017).

Sequences of proteins named here, by UniProt entry; tags and fusion partners are left off. A change or cut given only in a name is not applied to a line headed by its entry.
UniProt Q13464: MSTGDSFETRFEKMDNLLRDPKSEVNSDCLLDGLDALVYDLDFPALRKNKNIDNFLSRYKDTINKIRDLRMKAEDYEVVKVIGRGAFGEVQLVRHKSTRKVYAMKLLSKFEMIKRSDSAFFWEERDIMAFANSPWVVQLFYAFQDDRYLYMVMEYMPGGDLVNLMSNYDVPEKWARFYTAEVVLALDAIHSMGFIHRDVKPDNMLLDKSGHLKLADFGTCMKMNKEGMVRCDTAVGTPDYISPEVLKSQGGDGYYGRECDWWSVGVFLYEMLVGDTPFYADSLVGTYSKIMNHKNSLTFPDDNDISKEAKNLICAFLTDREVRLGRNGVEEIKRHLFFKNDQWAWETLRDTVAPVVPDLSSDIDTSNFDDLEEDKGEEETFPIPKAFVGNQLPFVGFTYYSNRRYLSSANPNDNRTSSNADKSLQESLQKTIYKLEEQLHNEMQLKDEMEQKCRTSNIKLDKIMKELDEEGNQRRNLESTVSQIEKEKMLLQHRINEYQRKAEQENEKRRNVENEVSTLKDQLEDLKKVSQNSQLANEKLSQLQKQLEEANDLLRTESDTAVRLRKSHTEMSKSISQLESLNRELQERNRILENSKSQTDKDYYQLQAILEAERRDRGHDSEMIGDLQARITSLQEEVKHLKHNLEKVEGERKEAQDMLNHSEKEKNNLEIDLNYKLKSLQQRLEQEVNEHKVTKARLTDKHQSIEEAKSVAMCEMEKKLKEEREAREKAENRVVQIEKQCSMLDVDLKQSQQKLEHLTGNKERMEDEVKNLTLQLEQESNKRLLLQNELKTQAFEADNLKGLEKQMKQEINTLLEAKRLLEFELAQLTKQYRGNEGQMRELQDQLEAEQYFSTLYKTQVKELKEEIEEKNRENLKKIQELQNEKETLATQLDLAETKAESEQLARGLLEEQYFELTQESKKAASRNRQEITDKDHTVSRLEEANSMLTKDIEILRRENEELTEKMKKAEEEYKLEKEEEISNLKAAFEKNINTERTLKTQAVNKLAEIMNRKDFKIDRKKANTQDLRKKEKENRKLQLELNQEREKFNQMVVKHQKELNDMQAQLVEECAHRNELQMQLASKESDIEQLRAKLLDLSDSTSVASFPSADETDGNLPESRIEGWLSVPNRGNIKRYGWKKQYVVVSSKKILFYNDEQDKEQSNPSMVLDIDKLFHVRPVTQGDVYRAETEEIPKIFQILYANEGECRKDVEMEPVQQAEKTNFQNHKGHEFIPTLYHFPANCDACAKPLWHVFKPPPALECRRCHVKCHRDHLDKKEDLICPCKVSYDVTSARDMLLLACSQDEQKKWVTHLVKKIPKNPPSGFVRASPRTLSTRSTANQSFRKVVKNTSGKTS
UniProt O75116, whole entry, species assumed: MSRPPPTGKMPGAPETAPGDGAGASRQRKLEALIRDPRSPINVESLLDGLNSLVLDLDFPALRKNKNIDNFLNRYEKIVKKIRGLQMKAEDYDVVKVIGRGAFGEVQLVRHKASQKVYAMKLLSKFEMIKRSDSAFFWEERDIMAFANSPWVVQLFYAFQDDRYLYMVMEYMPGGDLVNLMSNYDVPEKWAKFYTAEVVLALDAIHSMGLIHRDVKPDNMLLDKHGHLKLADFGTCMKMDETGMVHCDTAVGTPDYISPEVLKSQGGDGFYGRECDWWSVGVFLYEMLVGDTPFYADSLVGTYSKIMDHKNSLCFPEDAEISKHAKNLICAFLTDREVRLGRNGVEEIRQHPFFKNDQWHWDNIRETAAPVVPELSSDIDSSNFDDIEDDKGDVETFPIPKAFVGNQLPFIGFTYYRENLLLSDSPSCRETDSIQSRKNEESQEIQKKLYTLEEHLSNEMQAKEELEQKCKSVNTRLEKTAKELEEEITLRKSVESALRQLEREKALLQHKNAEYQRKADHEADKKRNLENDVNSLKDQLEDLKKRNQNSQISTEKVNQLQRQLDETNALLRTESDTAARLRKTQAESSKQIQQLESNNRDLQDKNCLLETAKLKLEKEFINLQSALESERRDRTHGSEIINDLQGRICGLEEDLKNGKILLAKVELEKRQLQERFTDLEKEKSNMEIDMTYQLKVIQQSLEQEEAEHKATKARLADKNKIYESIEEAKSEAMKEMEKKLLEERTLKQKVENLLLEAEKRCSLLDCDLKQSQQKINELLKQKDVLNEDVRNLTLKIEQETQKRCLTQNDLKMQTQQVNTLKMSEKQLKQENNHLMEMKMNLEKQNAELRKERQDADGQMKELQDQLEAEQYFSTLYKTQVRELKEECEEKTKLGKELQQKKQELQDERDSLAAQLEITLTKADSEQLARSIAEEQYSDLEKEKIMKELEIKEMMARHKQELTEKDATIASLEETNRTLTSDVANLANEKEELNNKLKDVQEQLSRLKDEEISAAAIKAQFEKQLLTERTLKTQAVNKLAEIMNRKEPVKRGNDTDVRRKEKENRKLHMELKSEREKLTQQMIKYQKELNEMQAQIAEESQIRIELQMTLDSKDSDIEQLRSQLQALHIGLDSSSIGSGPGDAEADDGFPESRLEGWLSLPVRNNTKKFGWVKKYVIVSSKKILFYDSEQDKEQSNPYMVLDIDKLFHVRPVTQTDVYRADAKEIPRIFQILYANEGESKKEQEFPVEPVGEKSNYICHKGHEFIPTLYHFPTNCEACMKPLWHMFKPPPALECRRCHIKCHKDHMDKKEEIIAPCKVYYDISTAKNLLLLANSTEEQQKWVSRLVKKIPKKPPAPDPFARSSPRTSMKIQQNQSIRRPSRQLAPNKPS

Key:
[1] = target: ROCK1 (Homo sapiens (Human), UniProt Q13464); assay: Z-lyte FRET assay to measure kinase inhibition, ROCK1; assay type: biochemical
[2] = target: ROCK2 (Homo sapiens (Human), UniProt O75116); assay: Z-lyte FRET assay to measure kinase inhibition, ROCK2; assay type: biochemical

Nc1nccc(-n2ccc3cc(NC(=O)Cc4ccccc4)ccc32)n1
IC50 [1]: 20.8 ± 6.3 µM | inhibition at 50 µM ([1]; read-out: ROCK1 % inhibition @ 50 μM): 53 ± 1% | IC50 [2]: 5.8 ± 1.4 µM
